{
  "source": "patent US20110059076A1",
  "about": "“HUMAN SERUM ALBUMIN LINKERS AND CONJUGATES THEREOF” (priority 2008, published 2011)",
  "key": {"[1]": {"system": "control BT-474-M3 breast cancer cell xenografts", "assay": "BT-474-M3 shControl xenografts", "type": "in vivo, nude mice", "settings": "30 mg/kg B2B3-1 every 3 days or 10 mg/kg trastuzumab every week, i.p.", "procedure": "(§1) ShRNA technology is applied to knock out the activity of the tumor suppressor gene phosphatase and tensin homolog (PTEN) in BT-474-M3 breast cancer cells. Briefly, cultured BT-474-M3 cells are transfected with shPTEN or shControl RNA by retroviral transfection. Transfected cells with reduced PTEN are selected using FACS and subsequently injected subcutaneously into the right flank of nude mice to establish xenograft tumors. Cells transfected with a control vector are injected into the left flank of the same mouse. […] HSA is injected as a control at an equimolar dose to B2B3-1. All injections are done i.p."}, "[2]": {"system": "pAKT in BT-474-M3 xenografts that have reduced PTEN activity", "assay": "pAKT Western blot of PTEN deficient BT-474-M3 xenograft tumors", "type": "in vivo", "settings": "30 mg/kg B2B3-1 every 3 days or 10 mg/kg trastuzumab weekly", "excerpt": "Equal quantities of protein are loaded in each lane and total protein levels are controlled by probing for PCNA."}, "BT-474-M3 xenograft": {"system": "BT-474-M3 xenograft", "assay": "combination with trastuzumab in BT-474-M3 xenograft model", "type": "in vivo, athymic nude mice (nu/nu)", "settings": "single agent, trastuzumab 1 mg/kg q7d", "procedure": "Mice receive a subcutaneous estrogen-releasing implant in the opposite flank (0.72 mg pellet, 60 day, slow-release, Innovative Research of America, Sarasota, Fla.) 24 h prior to the injection of 20×10^6 human BT-474-M3cells in PBS. Dosing is initiated when tumor growth is established (tumor volumes of approximately 400 mm^3). Tumors are measured twice a week using digital calipers. Tumor volume is calculated using the formula: π/6×(W^2×L), where W is the short diameter and L is the long diameter."}, "[3]": {"system": "BT-474-M3 shPTEN xenografts", "assay": "BT-474-M3 shPTEN xenografts (reduced PTEN activity)", "type": "in vivo, nude mice", "settings": "30 mg/kg B2B3-1 every 3 days or 10 mg/kg trastuzumab every week, i.p.", "procedure": "as §1"}, "[4]": {"system": "pErbB3 and pAKT in BT-474-M3 cells", "assay": "Western blot of heregulin induced ErbB3 activity in BT-474-M3 cells", "type": "cell-based", "settings": "BT-474-M3, 24 hours, 10 nM or 100 nM, with or without 5 nM HRG 1β EGF", "excerpt": "Lysates are subjected to immunoblot analysis for ErbB3, pErbB3, AKT, and pAKT."}},
  "data": [
    {"substance": "trastuzumab [reference compound]", "values": [
      {"measurement": "size of tumors formed by control BT-474-M3 cells", "setting": "[1]", "result": "promoted a reduction"},
      {"measurement": "pAKT in tumors (densitometry of Western blot)", "setting": "[2]", "result": "did not"},
      {"measurement": "mice with completely regressed tumors", "setting": "BT-474-M3 xenograft", "result": "0 out of 10"},
      {"measurement": "size of tumors formed by BT-474-M3 cells lacking expression of PTEN", "setting": "[3]", "result": "not"},
      {"measurement": "inhibition of pAKT", "setting": "[4]", "result": "only seen in the absence of ligand"},
      {"measurement": "inhibition of pErbB3", "setting": "[4]", "result": "only seen in the absence of ligand"}
    ]}
  ]
}
